A short description of the data set: Plasma nicotinamide levels in LP-BM5 infected mice (HPLC). The class given is in vivo, C57BL/6 mice. The following applies: Month 4; NAL 400 mg/kg, ASA 20 mg/kg, AZT as in Table 4.

SMILES strings stand for the structures.

For the compound `Cc1cn([C@H]2C[C@H](N=[N+]=[N-])[C@@H](CO)O2)c(=O)[nH]c1=O` [AZT, 3'azido-3'deoxythymidine, reference compound], the “Ratio of plasma nicotinamide mean to placebo (PBS Control, Group 1)” value was determined as 2.32.

The record behind these values is patent US5916906A, “Compositions comprising nicotinylalanine and an inhibitor of glycine conjugation or vitamin B6” (priority 1997, dated 1999).
